# Measured values published in US12583846B2, “2H-benzopyran derivatives as CRAC inhibitors” (CISEN PHARMACEUTICAL CO., LTD, priority 2019, dated 2026).
# Amino acid sequences for entries named in this document (tags omitted). Residues count along the entry.
# UniProt Q5M848, whole entry: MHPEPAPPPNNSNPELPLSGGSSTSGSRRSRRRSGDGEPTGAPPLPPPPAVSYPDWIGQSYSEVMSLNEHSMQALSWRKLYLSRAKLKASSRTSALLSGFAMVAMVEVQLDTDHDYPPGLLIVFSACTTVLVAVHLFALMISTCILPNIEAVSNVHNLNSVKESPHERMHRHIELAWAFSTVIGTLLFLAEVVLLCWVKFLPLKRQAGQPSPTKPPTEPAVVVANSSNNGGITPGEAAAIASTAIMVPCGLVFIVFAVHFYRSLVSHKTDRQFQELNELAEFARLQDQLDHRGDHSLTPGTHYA
# UniProt P84903, 23-685 partner limits assumed: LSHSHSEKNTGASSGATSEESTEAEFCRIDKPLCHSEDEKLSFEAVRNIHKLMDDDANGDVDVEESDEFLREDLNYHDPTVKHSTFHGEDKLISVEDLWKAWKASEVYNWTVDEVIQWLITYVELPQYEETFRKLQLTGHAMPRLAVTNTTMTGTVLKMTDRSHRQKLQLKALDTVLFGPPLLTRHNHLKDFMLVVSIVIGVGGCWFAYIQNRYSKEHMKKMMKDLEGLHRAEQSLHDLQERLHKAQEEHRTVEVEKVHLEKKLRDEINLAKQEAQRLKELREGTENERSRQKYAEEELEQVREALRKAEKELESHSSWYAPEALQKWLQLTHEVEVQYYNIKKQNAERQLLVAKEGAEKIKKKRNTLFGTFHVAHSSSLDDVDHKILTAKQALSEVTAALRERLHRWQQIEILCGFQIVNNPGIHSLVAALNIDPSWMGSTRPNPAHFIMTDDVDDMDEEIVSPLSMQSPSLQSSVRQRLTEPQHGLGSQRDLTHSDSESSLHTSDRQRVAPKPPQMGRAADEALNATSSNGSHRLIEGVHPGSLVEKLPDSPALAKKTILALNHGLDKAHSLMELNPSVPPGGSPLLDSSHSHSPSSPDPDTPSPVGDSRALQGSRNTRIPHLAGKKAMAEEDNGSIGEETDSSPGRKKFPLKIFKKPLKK
# What was measured:
# [1] = tested on: IL-2; test: Inhibitory activity on cytokines: IL-2 in supernatant of anti-CD3/anti-CD28 stimulated hPBMC by CBA method; settings: read-out: IL-2 IC50, anti-CD3/anti-CD28, 2 days incubation
# Experimental: (§1) Human peripheral blood mononuclear cells (hPBMC); supplier: HemaCare; Article Number: PB009C-2
# (§2) 96-well plates were coated with 5 μg/mL anti-human CD3 antibody (in DPBS) at […] overnight at 4° C.
# (§3) PBMC were removed from liquid nitrogen and immediately placed in a 37° C. water bath for recovery. To a 15 mL centrifuge tube, 5 mL culture medium (RPMI1640 culture medium+10% fetal bovine serum+1% non-essential amino acids+1% penicillin streptomycin+0.05 mM β-mercaptoethanol) was added, and the cell suspension was pipetted to the centrifuge tube, and the mixture was centrifuged at 320 g for 5 minutes. The cells were resuspended with culture medium and counted, and the cell concentration was then adjusted to 5×10^5 cells/mL with the culture medium, To the cell suspension was added anti-human CD28 antibody (final concentration 2 μg/mL), and the mixture was inoculated into a 96-well plate at 200 μL/well.
# (§4) Compounds were prepared at the desired concentration and added to the cells. The mixture was incubated at 37° C., 5% CO2 for 2 days.
# (§5) The standards were prepared according to the instructions of IL-2 and TNFα Flex Set kit. […] The average fluorescence intensity of the PE channel was detected by flow cytometry. Based on the average fluorescence intensity of the standards, the contents of IL-2 and TNF-α of the samples were calculated.
# [2] = biological target: CRAC channel (Rattus norvegicus, UniProt Q5M848); test: CRAC in vitro cell activity test: inhibition of Ca2+ by FLIPR calcium flux assay in RBL-2H3 cells; format: cell-based; settings: read-out: IC50 for inhibition of Ca2+ by FLIPR assay, RBL-3H cell assay (RBL-2H3), thapsigargin
# Experimental: 1.3 Cell Strain: RBL-2H3, Derived from the HDB Cell Bank. 2. Experimental Procedure and Method: 2.1 Cell Plating • 1) Preparing a biosafety cabinet and preheating relevant reagents. Cells were observed daily and passaged until 85% area of the 10 cm culture dish was covered with cells. • 2) The cell culture dish was taken out and the culture medium was removed. The cell surface was washed with DPBS, and DPBS was then removed. The cells were digested with 1 mL of 0.25% Trypsin-EDTA for 1-3 minutes, and digestion was stopped by adding 2 mL of culture medium. A pipetting gun was used to gently blow cells until the cells fall off the surface of the culture dish. • 3) The cell density was adjusted to 15000 cells per well using growth culture medium in a volume of 25 μL culture medium per well. • 4) The cell culture plates were incubated to 80% density in an incubator at 37° C. and 5% CO2. […]
# Data Processing: the collected signal results were analyzed and graphed using ScreenWorks, Excel, Xlfit. and GraphPad.
# [3] = tested on: TNF-α; test: Inhibitory activity on cytokines: TNFα in supernatant of anti-CD3/anti-CD28 stimulated hPBMC by CBA method; settings: read-out: TNF-α IC50, anti-CD3/anti-CD28, 2 days incubation
# Experimental: as §1, §2, §3, §4, §5
smiles,measurement,setting,value
O=C(Nc1ncc(-c2cc3oc(C4CC4)nc3cc2Cl)cn1)c1c(F)cncc1F,IC50,[1],0.201 µM
same,IC50,[2],0.124 µM
same,IC50,[3],0.303 µM
